According to patent US20150258192A1, “COMPOSITIONS AND METHODS FOR PREVENTING OR TREATING CHRONIC LUNG ALLOGRAFT DYSFUNCTION (CLAD) AND IDIOPATHIC PULMONARY FIBROSIS (IPF)” (priority 2014, published 2015):

Tests used:
Assay in all cases: Kinase Profiling Assay
Type in all cases: biochemical
Details in all cases: peptide 100 μM
FGFR3(h) = FGFR3(h) (Homo sapiens, UniProt P22607)
Method in brief: (§1)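 Radiometric filter-binding format: cationic substrate takes up labeled phosphate from ATP unless the inhibitor peptide blocks the kinase. Substrate bound to an anionic filter, scintillation-counted, normalized to 100% activity control. Duplicates; part of a 266-kinase selectivity panel for MK2 peptides.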

MAPK1(h) = molecular target: T1, MAPK1(h) (Homo sapiens, UniProt P27361)
T1 construct: purchased Millipore
Method in brief: as §1

HIPK2(h) = molecular target: T2, HIPK2(h) (Homo sapiens, UniProt Q9H2X6)
T2 construct: purchased Millipore
Method in brief: as §1

IKKα(h) = molecular target: T3, IKKα(h) (Homo sapiens, UniProt O15111)
T3 construct: purchased Millipore
T3 sequence (O15111 1-745): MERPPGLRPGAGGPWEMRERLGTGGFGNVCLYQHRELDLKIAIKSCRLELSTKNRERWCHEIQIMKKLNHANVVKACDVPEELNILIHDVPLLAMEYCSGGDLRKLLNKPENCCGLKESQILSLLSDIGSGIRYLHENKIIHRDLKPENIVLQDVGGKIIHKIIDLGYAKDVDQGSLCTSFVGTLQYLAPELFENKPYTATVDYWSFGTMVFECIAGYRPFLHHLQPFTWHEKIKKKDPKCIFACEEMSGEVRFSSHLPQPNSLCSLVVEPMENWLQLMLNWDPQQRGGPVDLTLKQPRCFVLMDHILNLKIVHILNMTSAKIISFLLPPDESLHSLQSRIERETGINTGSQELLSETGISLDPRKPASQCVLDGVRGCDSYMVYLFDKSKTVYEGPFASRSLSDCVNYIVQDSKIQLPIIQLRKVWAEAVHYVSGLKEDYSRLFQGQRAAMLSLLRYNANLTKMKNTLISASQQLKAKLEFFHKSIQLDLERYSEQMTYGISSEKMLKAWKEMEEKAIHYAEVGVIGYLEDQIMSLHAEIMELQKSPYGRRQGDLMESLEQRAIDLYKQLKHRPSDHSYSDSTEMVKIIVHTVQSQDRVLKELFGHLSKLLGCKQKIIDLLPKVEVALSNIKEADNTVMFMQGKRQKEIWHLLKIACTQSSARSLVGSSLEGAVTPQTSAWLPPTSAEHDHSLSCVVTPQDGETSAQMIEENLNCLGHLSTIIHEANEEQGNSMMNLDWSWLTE
Method in brief: as §1

MKK7β(h) = molecular target: T4, MKK7β(h) (Homo sapiens, UniProt O14733)
T4 construct: purchased Millipore
T4 sequence (O14733 1-419): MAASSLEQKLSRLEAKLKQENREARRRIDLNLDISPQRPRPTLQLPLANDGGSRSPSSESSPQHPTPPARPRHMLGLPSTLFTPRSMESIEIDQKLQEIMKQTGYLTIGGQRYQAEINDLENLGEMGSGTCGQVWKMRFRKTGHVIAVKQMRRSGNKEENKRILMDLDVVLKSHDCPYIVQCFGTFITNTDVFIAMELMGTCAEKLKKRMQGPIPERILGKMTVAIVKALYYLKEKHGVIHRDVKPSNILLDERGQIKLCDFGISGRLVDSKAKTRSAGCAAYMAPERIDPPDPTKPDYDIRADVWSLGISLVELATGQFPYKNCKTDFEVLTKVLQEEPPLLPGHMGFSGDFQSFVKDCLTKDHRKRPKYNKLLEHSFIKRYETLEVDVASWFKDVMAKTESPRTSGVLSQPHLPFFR
Method in brief: as §1

MLCK(h) = molecular target: T5, MLCK(h) (Homo sapiens, UniProt Q9H1R3)
T5 construct: purchased Millipore
Method in brief: as §1

Ret(V804M)(h) = Ret(V804M)(h) (Homo sapiens, UniProt P07949, V804M)
Method in brief: as §1

ASK1(h) = ASK1(h) (Homo sapiens, UniProt Q99683)
Method in brief: as §1

CSK(h) = CSK(h) (Homo sapiens, UniProt P41240)
Method in brief: as §1

CaMKIIγ(h) = CaMKIIγ(h) (Homo sapiens, UniProt Q13555)
Method in brief: as §1

FGFR4(h) = FGFR4(h) (Homo sapiens, UniProt P22455)
Method in brief: as §1

Flt1(h) = Flt1(h) (Homo sapiens, UniProt P17948)
Method in brief: as §1

IR(h) = molecular target: T6, IR(h) (Homo sapiens, UniProt P06213)
T6 construct: purchased Millipore
Method in brief: as §1

IRAK1(h) = molecular target: T7, IRAK1(h) (Homo sapiens, UniProt P51617)
T7 construct: purchased Millipore
Method in brief: as §1

LKB1(h) = molecular target: T8, LKB1(h) (Homo sapiens, UniProt Q15831)
T8 construct: purchased Millipore
Method in brief: as §1

Lyn(h) = molecular target: T9, Lyn(h) (Homo sapiens, UniProt P07948)
T9 construct: purchased Millipore
Method in brief: as §1

MSK1(h) = molecular target: T10, MSK1(h) (Homo sapiens, UniProt O75582)
T10 construct: purchased Millipore
Method in brief: as §1

Met(h) = molecular target: T11, Met(h) (Homo sapiens, UniProt P08581)
T11 construct: purchased Millipore
Method in brief: as §1

NEK11(h) = molecular target: T12, NEK11(h) (Homo sapiens, UniProt Q8NG66)
T12 construct: purchased Millipore
Method in brief: as §1

Pim-2(h) = Pim-2(h) (Homo sapiens, UniProt Q9P1W9)
Method in brief: as §1

RIPK2(h) = RIPK2(h) (Homo sapiens, UniProt O43353)
Method in brief: as §1

Ros(h) = Ros(h) (Homo sapiens, UniProt P08922)
Method in brief: as §1

mTOR(h) = molecular target: T13, mTOR(h) (Homo sapiens, UniProt P42345)
T13 construct: purchased Millipore
Method in brief: as §1

In the case of FAKLAARLYRKALARQLGVAA [MMI-0300], the “% activity” value (FGFR3(h)) is reported as 102% and the “% activity” value (MAPK1(h)) is reported as 107%.

For “YARAAARQARAKALNRQLGVA (Mammal) [MMI-0200]”, the “% activity” value (HIPK2(h)) was 102%, the “% activity” value (IKKα(h)) was 104% and the “% activity” value (MKK7β(h)) was 117%. The “% activity” value (MLCK(h)) was 103% and the “% activity” value (Ret(V804M)(h)) was 105%.

With CC(C)C[C@H](NC(=O)[C@H](C)NC(=O)[C@H](CCCCN)NC(=O)[C@H](C)NC(=O)[C@H](CCCNC(=N)N)NC(=O)[C@H](C)NC(=O)[C@H](CCC(N)=O)NC(=O)[C@H](CCCNC(=N)N)NC(=O)[C@H](C)NC(=O)[C@H](C)NC(=O)[C@H](C)NC(=O)[C@H](CCCNC(=N)N)NC(=O)[C@H](C)NC(=O)[C@@H](N)Cc1ccc(O)cc1)C(=O)N[C@@H](C)C(=O)N[C@@H](CCCNC(=N)N)C(=O)N[C@@H](CCC(N)=O)C(=O)N[C@@H](CC(C)C)C(=O)NCC(=O)N[C@H](C(=O)N[C@@H](C)C(=O)N[C@@H](C)C(=O)O)C(C)C [MMI-0100] the “% activity” value (ASK1(h)) was 100%, the “% activity” value (CSK(h)) was 70% and the “% activity” value (CaMKIIγ(h)) was 106%. The “% activity” value (FGFR4(h)) was 67%, the “% activity” value (Flt1(h)) was 109% and the “% activity” value (IR(h)) was 112%. The “% activity” value (IRAK1(h)) was 97%, the “% activity” value (LKB1(h)) was 111% and the “% activity” value (Lyn(h)) was 113%. For the same molecule, the “% activity” value (MSK1(h)) was 52%, the “% activity” value (Met(h)) was 104% and the “% activity” value (NEK11(h)) was 102%. For the same molecule, the “% activity” value (Pim-2(h)) was 117%, the “% activity” value (RIPK2(h)) was 92% and the “% activity” value (Ros(h)) was 107%. For the same molecule, the “% activity” value (mTOR(h)) was 102%.
